Laboratory results as given in patent US20250057837A1, “Methods for Treating HCV” (priority 2015, published 2025).

Details: human, in vivo

Substance | dose-normalized Cmax, AUC24, and C24, change
R-methadone | ≤ 5%
S-methadone | ≤ 5%
